Assay results published in PMC4132742, “Inhibition of RNA binding to hepatitis C virus RNA-dependent RNA polymerase: a new mechanism for antiviral intervention” (Nucleic Acids Research, 2014).

The chains behind the UniProt entries cited, without tags or fusion partners. Residues count along the entry.
UniProt O92972, 2420-2989, stated change not applied: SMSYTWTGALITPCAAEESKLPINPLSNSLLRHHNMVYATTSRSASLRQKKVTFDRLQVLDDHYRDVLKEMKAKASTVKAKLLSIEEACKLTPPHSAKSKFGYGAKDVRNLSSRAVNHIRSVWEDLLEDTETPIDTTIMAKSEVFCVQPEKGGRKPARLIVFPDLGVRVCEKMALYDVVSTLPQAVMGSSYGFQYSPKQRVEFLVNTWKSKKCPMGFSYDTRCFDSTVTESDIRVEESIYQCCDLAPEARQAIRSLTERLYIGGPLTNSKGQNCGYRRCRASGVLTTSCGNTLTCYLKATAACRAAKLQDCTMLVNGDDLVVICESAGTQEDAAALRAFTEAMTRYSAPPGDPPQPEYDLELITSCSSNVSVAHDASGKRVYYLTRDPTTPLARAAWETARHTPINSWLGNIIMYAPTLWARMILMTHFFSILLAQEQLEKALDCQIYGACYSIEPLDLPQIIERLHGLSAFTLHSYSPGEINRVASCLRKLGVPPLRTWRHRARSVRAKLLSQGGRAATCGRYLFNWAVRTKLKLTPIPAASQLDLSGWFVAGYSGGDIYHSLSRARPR

Legend:
[1] = biological target: HCV-NS5BΔ21 RdRp genotype 1b (strain J4) (Hepatitis C virus genotype 1b, UniProt O92972); conditions: HCV genotype 1b RdRp, data not shown
[2] = in vitro; conditions: human

SMILES: O=c1c(O)c(-c2ccc(O)c(O)c2)oc2cc(O)c(O)c(O)c12 [Quercetagetin]
- activity relative to silibinin [1]: 19 times
- selectivity ratio at 3 days [2]: 32.9
